Experimental data as given in patent US8148410B2, “Thiophene derivatives as agonists of S1P1/EDG1” (Actelion Pharmaceuticals Ltd., priority 2007, dated 2012).

Sequences of proteins named here, by UniProt entry; tags and fusion partners are left off.
UniProt P21453, whole entry: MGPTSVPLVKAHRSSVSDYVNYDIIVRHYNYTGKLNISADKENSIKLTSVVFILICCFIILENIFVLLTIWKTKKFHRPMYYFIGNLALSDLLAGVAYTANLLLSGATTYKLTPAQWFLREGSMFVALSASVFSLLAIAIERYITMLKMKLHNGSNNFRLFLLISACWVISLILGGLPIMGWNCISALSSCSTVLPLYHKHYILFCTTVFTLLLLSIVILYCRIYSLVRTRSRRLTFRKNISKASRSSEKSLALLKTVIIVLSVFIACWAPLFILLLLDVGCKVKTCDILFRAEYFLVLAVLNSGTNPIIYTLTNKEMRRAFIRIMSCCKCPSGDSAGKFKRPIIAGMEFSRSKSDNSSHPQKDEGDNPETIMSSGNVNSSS

Molecular target: recombinant human S1P1 receptor (Homo sapiens, UniProt P21453)
Test: GTPγS assay to determine EC50 values
Format: biochemical
Details: agonist concentration inducing 50% of maximal specific 35S-GTPγS binding; membranes of CHO cells expressing recombinant human S1P1
Protocol: GTPγS Assay to Determine EC50 Values
GTPγS binding assays are performed in 96 well microtiter plates (Nunc, 442587) in a final volume of 200 μl, using membrane preparations of CHO cells expressing recombinant human S1P1 receptor. Assay conditions are 20 mM Hepes (Fluka, 54461), 100 mM NaCl (Fluka, 71378), 5 mM MgCl2 (Fluka, 63064), 0.1% BSA (Calbiochem, 126609), 1 μM GDP (Sigma, G-7127), 2.5% DMSO (Fluka, 41644), 50 pM ^35S-GTPγS (Amersham Biosciences, SJ1320). The pH is 7.4. Test compounds are dissolved and diluted in 100% DMSO and pre-incubated at room temperature for 30 min in 150 μl of the above assay buffer, in the absence of ^35S-GTPγS. After addition of 50 μl of ^35S-GTPγS, the assay is incubated for 1 h at rt. The assay is terminated by transfer of the reaction mixture to a Multiscreen plate (Millipore, MAHFC1H60) using a cell harvester from Packard Biosciences, and the plates are washed with ice-cold 10 mM Na2HPO4/NaH2PO4 (70%/30%), dried, sealed at the bottom and, after addition of 25 μl MicroScint20 (Packard Biosciences, order #6013621), sealed on the top. Membrane-bound ^35S-GTPγS is measured with a TopCount from Packard Biosciences.
Specific binding is determined by subtracting non-specific binding from maximal binding. Maximal binding is the amount of cpm bound to the Multiscreen plate in the presence of 10 μM of S1P. […]

- EC50: 1 nM
Compound: CCc1cc(-c2noc(-c3cc(C)c(CN(C)C)s3)n2)cc(C)c1OC[C@@H](O)CNC(=O)CO [Example 51]
